Patent publication US20080085860A1 (Eli Lilly, published 2008)

Target: T1, Rat VPAC2 receptor (rat, UniProt P35000 23-437)
T1 sequence (looked up): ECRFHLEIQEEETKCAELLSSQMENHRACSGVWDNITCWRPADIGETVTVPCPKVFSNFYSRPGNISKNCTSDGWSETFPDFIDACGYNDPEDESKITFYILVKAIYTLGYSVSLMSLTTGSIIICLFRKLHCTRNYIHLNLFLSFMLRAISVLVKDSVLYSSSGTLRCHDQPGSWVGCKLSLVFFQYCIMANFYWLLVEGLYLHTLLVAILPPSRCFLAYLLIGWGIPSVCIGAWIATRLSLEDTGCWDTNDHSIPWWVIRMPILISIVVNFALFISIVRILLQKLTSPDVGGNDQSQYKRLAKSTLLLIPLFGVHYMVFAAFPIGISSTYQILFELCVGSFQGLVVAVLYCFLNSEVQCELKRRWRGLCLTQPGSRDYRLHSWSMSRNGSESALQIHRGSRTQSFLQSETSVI
Assay: cell-based or functional assay

HSDAVFTDNYTRLRKQMAVKKYLNSILN [VIP (vasoactive intestinal peptide) (SEQ ID NO: 1)]
EC50 (nm), in vitro potency using DiscoveRx (cAMP): 0.79 nM
